Measured values from ChEMBL document CHEMBL2406958, “Development of a chimeric c-Src kinase and HDAC inhibitor” (ACS Med Chem Lett, 2013).

Chains of the proteins cited; added tags and fusions are not shown. Lines headed by an entry give the natural chain unless they say otherwise; changes in a name come on top.
UniProt P12931: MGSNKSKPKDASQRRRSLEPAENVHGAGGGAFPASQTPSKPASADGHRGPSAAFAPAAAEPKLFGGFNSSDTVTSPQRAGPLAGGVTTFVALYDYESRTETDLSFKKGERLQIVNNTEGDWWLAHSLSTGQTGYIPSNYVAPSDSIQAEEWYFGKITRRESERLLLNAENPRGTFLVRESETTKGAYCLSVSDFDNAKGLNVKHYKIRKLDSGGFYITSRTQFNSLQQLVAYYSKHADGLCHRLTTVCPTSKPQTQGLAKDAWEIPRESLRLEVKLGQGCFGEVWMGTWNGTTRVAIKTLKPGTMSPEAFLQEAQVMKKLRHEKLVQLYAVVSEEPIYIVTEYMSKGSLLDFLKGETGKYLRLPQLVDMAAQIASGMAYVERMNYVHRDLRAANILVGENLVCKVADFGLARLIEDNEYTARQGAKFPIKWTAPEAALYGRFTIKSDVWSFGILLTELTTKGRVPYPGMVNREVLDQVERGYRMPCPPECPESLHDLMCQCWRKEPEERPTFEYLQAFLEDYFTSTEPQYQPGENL

Target: Proto-oncogene tyrosine-protein kinase Src (Homo sapiens, UniProt P12931)
Experiment: Inhibition of c-Src (unknown origin) after 10 mins by fluorimetric assay

Ki [nM] | Structure (SMILES)
2140 | Nc1ncnc2c1c(-c1ccc(Cl)cc1)nn2-c1cccc(-c2cnnn2Cc2cccc(/C=C/C(=O)NO)c2)c1
407 | Nc1ncnc2c1c(-c1ccc(Cl)cc1)nn2-c1cccc(-c2cnnn2CCCCCCCC(=O)NO)c1
